Only a part of the results on these compounds is given; other tests are left out.
System: A549 cells
Assay: TATp competition study
Conditions: free TATp 0.35, 3.5 or 35 μM, 2 h, dose-dependent
Method: FIG. 24 illustrates TATp competition studies. A549 cells were seeded in 24-well plates at 1.6×10^5 cells/well in 300 μL/well of complete growth media. After 24 h, the free TATp (0.35, 3.5 or 35 μM) was added into the cell media. Then, 10 μL of the rhodamine-PE-labeled MMP2-sensitive nanopreparation (1 mg/mL) was immediately added and incubated for 2 h. The cells were collected and analyzed by FACS.
A549 cells were seeded in 24-well plates at 1.6×10^5 cells/well in 300 μL/well of complete growth media. After 24 h, the free TATp (0.35, 3.5 or 35 μM) was added into the cell media. Then, 10 μL of the rhodamine-PE-labeled MMP2-sensitive nanopreparation (1 mg/mL) was immediately added and incubated for 2 h. The media was removed and the cells were washed with serum-free media three times. Cells were then analyzed by FACS.

Substance: Cys-Tyr-Gly-Arg-Lys-Lys-Arg-Arg-Gln-Arg-Arg-Arg
- effect on cellular uptake of rhodamine-PE-labeled nanopreparations: decreased the TATp-mediated cellular uptake
